Earlier results on one substance are cited in US8003847B2, “Non-human mutant mammals deficient in Sigma receptors and their applications” (Laboratorios Del Dr. Esteve, S.A., priority 2002, dated 2011).

The chains behind the UniProt entries cited, without tags or fusion partners.
UniProt Q99720, whole entry: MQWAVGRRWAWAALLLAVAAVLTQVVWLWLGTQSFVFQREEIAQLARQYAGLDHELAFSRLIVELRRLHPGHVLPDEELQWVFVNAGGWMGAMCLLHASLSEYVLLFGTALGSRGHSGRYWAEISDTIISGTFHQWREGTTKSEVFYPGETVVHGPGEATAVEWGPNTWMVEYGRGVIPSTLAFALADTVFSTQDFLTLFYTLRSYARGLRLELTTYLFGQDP

The target in this data set is type-1 Sigma receptors (Homo sapiens, UniProt Q99720). As to conditions: type-1 Sigma receptor, result in words; cited from earlier work.

As to (+)-SKF10047, the affinity result is “high affinity”.
